Earlier results as cited in US20080069869A1, “Formulations and methods for modulating satiety” (priority 2004, published 2008).

How the values were obtained:
[1] = biological target: T1, CCKB receptors (Homo sapiens, UniProt P32239); conditions: de Montigny 1989; Bradwejn et al. 1992b; cited from earlier work
T1 sequence (P32239 1-447): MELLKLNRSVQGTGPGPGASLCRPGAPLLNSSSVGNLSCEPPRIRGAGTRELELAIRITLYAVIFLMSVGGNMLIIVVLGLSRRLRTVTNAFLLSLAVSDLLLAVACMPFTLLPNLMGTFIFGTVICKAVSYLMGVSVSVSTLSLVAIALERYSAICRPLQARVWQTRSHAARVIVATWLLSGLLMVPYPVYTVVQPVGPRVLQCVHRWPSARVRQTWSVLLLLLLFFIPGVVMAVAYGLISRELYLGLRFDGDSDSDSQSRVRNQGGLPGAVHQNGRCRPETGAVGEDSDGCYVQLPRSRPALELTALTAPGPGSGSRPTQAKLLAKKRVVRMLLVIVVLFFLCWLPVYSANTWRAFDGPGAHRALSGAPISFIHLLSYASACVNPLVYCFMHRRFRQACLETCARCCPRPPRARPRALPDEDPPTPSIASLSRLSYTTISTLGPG

[2] = biological target: T2, CCK receptor (Homo sapiens, UniProt P32239); conditions: homogenates from the cerebral cortex; cited from earlier work
T2 sequence (P32239 1-447): T1 sequence (P32239 1-447)

CCK-4: the tetrapeptide, CCK-4 (CCK30-33)
affinity for CCKB receptors [1]: high affinity and selectivity | concentrations displacing CCK receptor binding relative to sulfated CCK-8 [2]: equimolar, 10-fold or 100-fold greater
